In patent US9572785B2, “DP2 antagonist and uses thereof” (Brickell Biotech, Inc., priority 2009, dated 2017) one finds chemical stability data, which are given here for 2 molecules.

A short description of the series: Properties of the amorphous phase. The series is classed as physicochemical.

Turning to `CCN(Cc1cc(C(F)(F)F)ccc1-c1cc(CC(=O)O)ccc1OC)C(=O)NCc1ccccc1` [Compound 1, [2′-(3-benzyl-1-ethyl-ureidomethyl)-6-methoxy-4′-trifluoromethyl-biphenyl-3-yl]-acetic acid], the chemical stability result is “chemically stable”.
In the case of `CCN(Cc1cc(C(F)(F)F)ccc1-c1cc(CC(=O)[O-])ccc1OC)C(=O)NCc1ccccc1.[Na+]` [Compound 2, [2′-(3-benzyl-1-ethyl-ureidomethyl)-6-methoxy-4′-trifluoromethyl-biphenyl-3-yl]-acetic acid, sodium salt], the chemical stability entry is listed as “chemically stable”.
